PMC9405135, “Tuning the Biological Activity of Camphorimine Complexes through Metal Selection” (Antibiotics, 2022)
Where two headings read alike, the source gives them in different places.

Assays:
[1] = test system: HDF fibroblasts; test: MTT cytotoxicity, HDF normal fibroblasts; settings: read-out: IC50 HDF, 24 h incubation
[2] = test system: OVCAR3 cells; test: MTT cytotoxicity, OVCAR3 ovarian cancer cells; settings: for SI = selectivity index = IC50(HDF)/IC50(OVCAR3): HDF versus OVCAR3, 24 h; for IC50: read-out: IC50 OVCAR3, MTT, 24 h incubation
[3] = Reduction potential by cyclic voltammetry; type: physicochemical; settings: Bu4NBF4/CH3CN electrolyte, ±10 mV, versus SCE
[4] = test system: A2780 cells; test: MTT cytotoxicity, A2780 ovarian cancer cells; settings: read-out: IC50 A2780, 24 h incubation
[5] = test system: ΦX174 supercoiled DNA; test: Complex-DNA interaction, agarose gel electrophoretic mobility; type: binding; settings: 0.5-15 µM complex, 24 h at 37 °C
Method: Therefore, we focused our studies mostly on the silver (5 and 7) and gold complexes (8 and 9) having the monocamphor ligands ^1A and ^2A, respectively. Complex 1 was also included for comparison. We evaluated the complexes’ ability to interact with DNA, by visualizing in vitro conformational changes in ΦX174 supercoiled DNA using agarose gel electrophoresis assays.
The DNA binding activity of the metal complexes was assessed through their ability to alter the electrophoretic mobilities of the covalently closed circular (ccc) and open circular (oc) forms of ΦX174 supercoiled DNA as previously described. Briefly, a mixture containing 200 ng of ϕX174 DNA (Promega, Madison, WI, USA) and different concentrations of the metal complexes was prepared. After incubation for 24 h at 37 °C in the dark, the samples were run in a 0.8% agarose gel in TAE buffer for 3 h at 90 V. The gel obtained was then stained using a 3× GelRed® (Biotium, Fremont, CA, USA) solution in H2O and imaged in an AlphaImagerEP (Alpha Innotech, San Leandro, CA, USA).

[6] = test system: V79 fibroblasts; test: MTT cytotoxicity, V79 normal fibroblasts; settings: read-out: IC50 V79, 24 h incubation
[7] = test system: OVCAR3 cells; test: Total cellular metal uptake by PIXE or ICP-MS; settings: 1 (Cu) 70 µM 24 h PIXE, 5 (Ag) 20 µM 6 h ICP-MS, 9 (Au) 20 µM 6 h PIXE, mean ± SD
[8] = test system: OVCAR3 cells; test: Metal distribution in single cells by nuclear microscopy (PIXE); type: cell-based, human; settings: 1 at 45 μM 24 h, 9 at 30 μM 3 h
Method: The distribution of copper and gold in treated cells was inspected by nuclear microscopy, making use of the PIXE technique to map and assess elemental contents in single cells. The nuclear microscopy techniques offer several advantages, regarding relatively high spatial resolution and sensitivity for a wide range of elements with physiological roles and those with pharmaceutical interest, in whole cells, while preserving most of their in vivo conditions.
OVCAR3 cells (ca. 1 × 10^6) were prepared for nuclear microscopy experiments by seeding the cells on a 100 nm thick silicon nitride membrane (Silson Ltd., Southam, UK), contained in six-well plates, and incubated overnight as described previously. Cells were incubated with complexes 1 and 9 at concentrations corresponding to the IC50 (45 μM for 24 h and 30 μM for 3 h, respectively). After incubation, the cells were analyzed at the nuclear microscopy facility of the C2TN/IST with a 2.0 MeV proton beam focused down to 3 × 4 µm^2 dimensions. Images of the micro-distributions of Cu and Au in OVCAR3 cells, as well as minor and trace physiological elements (e.g., P, S, K, and Fe), were obtained using the PIXE multielemental technique. Images of whole OVCAR3 cells were taken with 30 × 30 µm^2 scan sizes. Acquisition of data imaging and spectral analysis was performed using OMDAQ 2007 (Oxford Microbeams Ltd., Oxford, UK).

[9] = test system: OVCAR3 cells; test: Lipid peroxidation (MDA, TBARS) assay; type: cell-based, human; settings: OVCAR3 cells treated 6 h; 1 at 100 μM, 5 at 50 μM, 9 at 20 μM; mean ± SD
Method: Measurement of MDA relies on the detection of thiobarbituric acid (TBA)-reactive compounds generated from the decomposition of lipid peroxidation products. This reaction, which takes place under acidic conditions at 95 °C, results in the formation of an MDA–TBA adduct that can be quantified by its absorbance at 532 nm. […] Additionally, the MDA levels induced by the complexes correlated with the levels of ROS, pointing the involvement of ROS production in the mechanism of action of complexes under study and, consequently, the peroxidation of the membrane lipids, as supported by the correlation between the production of ROS and the levels of lipid peroxides, particularly for complexes 5 and 9.
The malondialdehyde (MDA) content in lipid extracts of OVCAR3 cells was measured using a colorimetric kit (BioVision, Milpitas, CA, USA), a method that relies on the reaction with thiobarbituric acid (TBARS assay). Briefly, OVCAR3 cells (5 × 10^5 cells/2 mL medium) were seeded in six-well plates and left to adhere for 24 h. […] The resulting cell pellet was treated following the kit recommended protocol. […] Then, 200 μL aliquots were then taken and transferred to a 96-well plate for MDA quantification at 532 nm. […]

[10] = test system: caspase-3/7 in OVCAR3 cells; test: Caspase-3/7 activation (Caspase-Glo 3/7 assay); type: cell-based, human; settings: OVCAR3, 24 h, concentrations below IC50
Method: Caspases are a family of cysteine proteases playing central roles in the regulation of cellular processes such as programmed cell death. Among them, caspase-3 and -7 are considered executioners of the apoptosis pathways. We investigated the possible activation of apoptotic events in OVCAR3 cells treated by camphorimine complexes 1, 5, and 9.
The activities of caspase-3 and -7 were assessed using the Caspase-Glo® 3/7 assay (Promega, Madison, WI, USA). The assay kit provides a proluminescent caspase-3/7 substrate (DEVD-aminoluciferin) and luciferase in a reagent optimized for caspase-3/7 activity, luciferase activity, and cell lysis. In the presence of caspase 3/7, this substrate is cleaved, and aminoluciferin is released and consumed by luciferase, which generates a luminescent signal proportional to the caspase activity present in the cells. The assay was carried out in a 96-well plate format with the OVCAR3 cells treated with complexes 1, 5, and 9 for 24 h at concentrations below their IC50 according to a previously described method. […] Results (mean ± SD) were expressed as relative luminescent units (RLU).

[11] = test system: OVCAR3 cells; test: Superoxide generation (NBT assay); type: cell-based, human; settings: 1 at 50 and 100 µM, 5 at 20 and 50 µM, 9 at 10 and 20 µM
Method: The ROS species superoxide (O2^•−) can be detected with NBT, a cell-permeant dye that can cross the cell membrane and be reduced by intracellular free radicals (superoxide anions) to form formazan particles, which can be detected as blue precipitates in the cells.
The nitro blue tetrazolium (NBT) assay was carried out adapting a previously described method. This assay was used to determine the ability of cells to produce superoxide anion upon treatment with the compounds. During the treatment, NBT is reduced by superoxide anion, resulting in dark-blue formazan particles. […] Then, the medium was discarded, and the blue formazan particles were dissolved in 200 μL of 90% DMSO (90% DMSO:10% NaOH 0.1 N with 0.1% SDS). The resulting NBT formazan was measured at 560 nm using a plate spectrophotometer.

[12] = test system: Caenorhabditis elegans; test: Toxicity in the in vivo model C. elegans (survival of L4 nematodes)

Substance	IC50 [1] [µM]	SI = selectivity index = IC50(HDF)/IC50(OVCAR3) [2]	IC50 [2] [µM]	Epred (reduction potential) [3] [Volt]	IC50 [4] [µM]	interaction with DNA (change of electrophoretic mobility) [5]	IC50 [6] [µM]	Total cellular uptake, concentration (ng metal content/10^6 cells) [7]	cellular distribution of the metal [8]	MDA (lipid peroxide content) [9] [pmoles/10^6 Cells]	caspase-3/7 activation [10]	superoxide ROS levels (NBT reduction) [11]	concentration at which nematodes progress into adulthood and produce eggs ([12]; C. elegans exposed from L4 to adulthood) [µM]	concentration at which worms swam in a coordinated and fast manner ([12]; C. elegans, 24 h incubation, visual inspection)	concentration at which survival rate, body size and movement were similar to control ([12]; C. elegans, 72 h exposure, control 1% DMSO) [µM]	toxicity toward C. elegans ([12]; at 5 µM)	LC50 ([12]; read-out: LC50 at 24 h, C. elegans L4, 24 h exposure) [µM]	LC50 ([12]; read-out: LC50 at 48 h, C. elegans L4, 48 h exposure) [µM]	LC50 ([12]; read-out: LC50 at 72 h, C. elegans L4, 72 h exposure) [µM]	LC50 ([12]; read-out: LC50 at 96 h, C. elegans L4, 96 h exposure) [µM]
K2[{Au(CN)2}2(OC10H14NC6H5)3]	0.46	5.7	0.08	−1.65	0.08	none of them interacted significantly with DNA	0.48	–	–	–	–	–	–	–	–	–	–	–	–	–
K[Au(CN)2(OC10H14NC6H4NH2)]	0.59	8.4	0.07	−1.85	0.04	none of them interacted significantly with DNA	0.48	688 ± 23 ng Metal Content/10^6 Cells	spread in both the cytoplasm and the nucleus	1370 ± 210	higher caspase-3 and -7 activation levels	increased the ROS levels in a dose-dependent manner	–	–	–	–	–	–	–	–
[Ag(NO3)(OC10H14NC6H5)2]	> 100	> 50	2.24	0.12	3.53	none of them interacted significantly with DNA	> 100	273 ± 15 ng Metal Content/10^6 Cells	–	1740 ± 270	higher caspase-3 and -7 activation levels	increased the ROS levels in a dose-dependent manner	≤ 5	below 100 µM	≤ 10	nontoxic	145	55.2	20.7	16.1
[Ag(OH)(OC10H14NC6H4NH2)]·CH3COOH	> 100	–	8.99	−0.047	10.4	none of them interacted significantly with DNA	34.1	–	–	–	–	–	–	–	–	–	–	–	–	–
[{Ag(OC10H14NC6H5)}2(μ-O)]	30.6	49	0.63	0.00	0.66	–	3.01	–	–	–	–	–	–	–	–	–	–	–	–	–
